The list is not random: actives were taken first. Their share in the collection is about 2.2%.
miR-21 reporter: raises the signal of a miR-21 reporter; AID 2288; 340,000 tested, under 10 active; Potency, µM (doses to about 38.3 µM), inactives show at the top dose reporter change, positive = more light; HeLa miR-21 FLuc reporter, luciferase, 48 h; active = well fitted rising curve with a large enough effect; inconclusive = small, poorly fitted or top-dose-only effect; inactive = no such curve, though single readings can be large or run the other way;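 note: % of control where 0% means no effect; miR-21 action dims this reporter so a rising signal means less miR-21 action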
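Compounds were titrated across several concentrations (up to approximately 40 uM) and incubated 48 hours with HeLa miR-21-FLuc reporter cells (miR-21 target sequence downstream of FLuc, endogenous miR-21). Readout was firefly luciferase luminescence after lytic detection reagent.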
PI4K2A block: PI4K2A (human) kinase inhibition; Q9BTU6; purified PI4K2A, ADP-Glo luminescence, 1 h; hits give low values; activity change, negative = inhibition, % at 76.9 µM; hit rate 0.13% among 420,000; AID 1346378; in the data active = activity change below about -50%; inconclusive = mostly about -30% to -49%;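 note: -100% = wells without enzyme as full effect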
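ADP-Glo luminescence measured ADP generated by PI4K2A enzyme (4 ug/mL before mixing) with 1.2 mM PI substrate (pre-mix) and 300 microM ATP (pre-mix). Tris pH7.5 buffer with MgCl2, Triton X-100; 1 h reaction at ambient temperature.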
A549 tox: counter-screen for Nrf2 inhibitors: cytotoxicity in A549 cells; Potency, µM (top dose mostly 46 µM), inactives show top-dose activity change, negative = cytotoxicity, actives largely listed as inhibitors; A549 ARE-Fluc cells, CellTiter-Fluor viability, 18-24 h; hit rate 0.16% among 390,000; AID 504648; note: potency is the fitted concentration of half-maximal effect; % is set by controls: 0 for no effect and ±100 for the full control effect
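Cytotoxicity counterscreen: CellTiter-Fluor fluorescence was measured in A549 ARE_Fluc cells after 18-24 h of compound exposure in a concentration series. The subsequent BugLite luminescent read reports ARE-luciferase activity.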
Nrf2 activator: Nrf2 pathway activation | AREc32 ARE-luciferase reporter (MCF7-derived line), luminescence, 24 h | Potency, µM (doses to about 46.1 µM), inactives show at the highest dose activation, usual class: activators | hit rate 0.31% among 410,000 | AID 624171; note: potency is the fitted concentration of half-maximal effect; % of control where 0% means no effect; nearly all actives have a fitted effect of over 65% in size
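ARE activation measured as luciferase luminescence (Steady-Glo, 30 min RT) in AREc32_Fluc cells after 24 hr compound exposure at 37 deg C, 5% CO2; cells seeded overnight at 1000/well in OPTI-MEM, 5% FBS.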
GALK inh: inhibitors of human galactokinase. Purified GALK, Kinase-Glo residual ATP luminescence. Potency, µM (doses to about 57.5 µM), for the others: at the top dose activity change, negative = inhibition, hits mostly inhibitors. hit rate 0.007% among 270,000. AID 1868; note: potency is the fitted concentration of half-maximal effect; % is set by controls: 0 for no effect and ±100 for the full control effect
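Human GALK (5 nM) with 35 uM ATP and 100 uM galactose in 20 mM HEPES pH 8.0, 5 mM MgCl2, 60 mM NaCl, 1 mM DTT, 0.01% BSA. After 1 h at room temperature, leftover ATP was read by Kinase-Glo Plus luminescence.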
Nrf2 block: blocks Nrf2 signaling; A549 ARE-Fluc reporter, luciferase luminescence, 18-24 h; Potency, µM (titrated, usually from 46 µM), for inactives: top-dose activity change, negative = inhibition, usual class: inhibitors; hit rate 2.1% among 360,000; note: potency is the fitted concentration of half-maximal effect; % is set by controls: 0 for no effect and ±100 for the full control effect; nearly all actives have a fitted effect of over 60% in size
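Two sequential reads on A549 ARE_Fluc cells exposed to compound for 18-24 h: a CellTiter-Fluor fluorescence read for viability, then a luciferase luminescence read for Nrf2/ARE activity.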
Active calls of the source: *; u = inconclusive; x = no result given. Unless noted, calls come from the whole dose curve; as a rule, active = well fitted curve in the direction sought with a large enough effect; inconclusive = small, poorly fitted or top-dose-only effect, or another doubt; inactive = no such curve, though single readings can be large; an effect the other way counts as inactive or inconclusive.

[1] Cc1ccccc1S(=O)(=O)Cc1ccc(C(=O)NC2CCCC2)o1
[2] Cc1ccc(CN[C@@H]2CC[C@@]34CCCN3C(=O)CCC[C@H]4C2)cc1
[3] Cc1ccc(NC(=O)OCC(F)(F)C(F)F)cc1NC(=O)OCC(F)(F)C(F)F
[4] Cc1ccc2nc(CSc3nc(C)nc4c3oc3ccccc34)[nH]c2c1
[5] O=C(COCCOCCOCC(=O)Nc1c(I)cc(I)c(C(=O)O)c1I)Nc1c(I)cc(I)c(C(=O)O)c1I
[6] C#CC(=O)N(c1ccc(OC)c(OC)c1)C(C(=O)NC1CCCC1)c1cccs1 (stereo unspecified)
[7] C#CC(=O)N(c1cccc(OC)c1)C(C(=O)NC1CCCC1)c1cccs1 (stereo unspecified)
[8] Cc1cccc(N(C(=O)C(F)(F)F)C(C(=O)NC2CCCCC2)c2cccs2)c1 (stereo unspecified)
Screen / compound no. | 1 | 2 | 3 | 4 | 5 | 6 | 7 | 8
miR-21 reporter | -2% | x | 3% | x | x | 20% | u | -15%
PI4K2A block | 7 | -1 | 2 | 0 | -2 | -11 | -8 | -1
A549 tox | -2% | x | x | u | x | u | -15% | -5%
Nrf2 activator | -2% | x | 2% | 0% | x | u | -2% | 3%
GALK inh | -1% | x | 2% | x | x | -5% | -2% | -2%
Nrf2 block | u | x | 18µM* | 18µM* | x | 23µM* | 16µM* | 4%

A draw from above in order of SMILES length, smallest number first.
[7] C#CC(=O)N(c1cccc(OC)c1)C(C(=O)NC1CCCC1)c1cccs1 (stereo unspecified)
[3] Cc1ccc(NC(=O)OCC(F)(F)C(F)F)cc1NC(=O)OCC(F)(F)C(F)F
[5] O=C(COCCOCCOCC(=O)Nc1c(I)cc(I)c(C(=O)O)c1I)Nc1c(I)cc(I)c(C(=O)O)c1I
Screen / compound no. | 7 | 3 | 5
miR-21 reporter | u | 3% | x
PI4K2A block | -8 | 2 | -2
A549 tox | -15% | x | x
Nrf2 activator | -2% | 2% | x
GALK inh | -2% | 2% | x
Nrf2 block | 16µM* | 18µM* | x

Going on with the list.
[9] Cc1ccccc1N(C)C1=N[S+](=O)([O-])c2ccccc21
[10] Cc1ccc(-n2c(SCC(=O)Nc3ccc(Oc4ccccc4)cc3)nnc2-c2ccco2)cc1
[11] Cn1nc(CC(=O)Nc2ccc(N3CCN(C(=O)OC(C)(C)C)CC3)cc2)c2ccccc2c1=O
[12] Cn1nc(CC(=O)N2CCN(c3ccccc3)CC2)c2ccccc2c1=O
[13] COc1ccc(N2CCN(CCCNC(=O)CCOC(C)(C)C)CC2)cc1
[14] CN(CC(=O)Nc1ccc(Cl)c(C(F)(F)F)c1)C(=O)C1CCN(C(=O)c2ccc(Cl)cc2)CC1
[15] Cc1sc2ncnc(N3CCC(C(=O)N(C)CC(=O)Nc4ccccc4Cl)CC3)c2c1C
[16] Cc1sc2ncnc(N3CCC(C(=O)N(C)CC(=O)Nc4ccc(Cl)c(C(F)(F)F)c4)CC3)c2c1C
Screen / compound no. | 9 | 10 | 11 | 12 | 13 | 14 | 15 | 16
miR-21 reporter | x | x | 12% | 8% | x | x | 29% | x
PI4K2A block | x | 2 | 2 | -5 | -4 | 1 | -4 | -1
A549 tox | 1% | x | -16% | -12% | x | u | u | u
Nrf2 activator | x | x | 0% | -1% | x | -1% | -2% | 0%
GALK inh | x | x | -3% | 1% | x | x | -4% | x
Nrf2 block | -2% | x | 10µM* | -21% | x | 23µM* | 23µM* | 10µM*

[17] CNC(=O)c1ccccc1Sc1ccc2c(/C=C/c3ccccn3)n[nH]c2c1
[18] CC/C=C(\C(=O)N[C@@H]1C(=O)N2C(C(=O)OCOC(=O)C(C)(C)C)=C(COC(N)=O)CS[C@H]12)c1csc(N)n1
[19] Fc1ccccc1-c1ccc(-c2nc3ccc(Cl)cn3c2Nc2ccc(Cl)cc2)o1
[20] O=C(NCCC1CCCCN1S(=O)(=O)c1ccc(F)cc1)C(=O)NCc1ccncc1 (stereo unspecified)
[21] O=C(NCCC1CCCCN1S(=O)(=O)c1ccc(Cl)cc1)C(=O)NCc1ccncc1 (stereo unspecified)
[22] COc1ccc(S(=O)(=O)c2cc3cc(OC)ccc3oc2=O)cc1
[23] CCOc1cccc2cc(C(=O)Oc3ccc(OC)cc3)c(=O)oc12
[24] COc1ccc(S(=O)(=O)c2cc3cc(C(C)(C)C)cc(O)c3oc2=O)cc1
[25] Cc1ccc(S(=O)(=O)c2cc3ccccc3oc2=O)cc1
[26] CCOc1ccc(S(=O)(=O)c2cc3cccc(OCC)c3oc2=O)cc1
[27] CCCC(=O)Nc1ccc(O)c(C(C)=O)c1
Screen / compound no. | 17 | 18 | 19 | 20 | 21 | 22 | 23 | 24 | 25 | 26 | 27
miR-21 reporter | x | x | x | x | x | 2% | -5% | u | 0% | -1% | x
PI4K2A block | -2 | -11 | x | 2 | 0 | -1 | 0 | 2 | 3 | 6 | -1
A549 tox | x | x | -6% | 5% | 2% | -5% | 0% | 3% | -1% | -4% | x
Nrf2 activator | x | x | x | -2% | 0% | 12% | 3% | 16µM* | 5.6µM* | 4.5µM* | x
GALK inh | x | x | x | x | x | x | -7% | x | 4% | x | x
Nrf2 block | x | x | u | 12µM* | 21µM* | 9% | 0% | u | -14% | 5% | x

Assay outcomes deposited in PubChem BioAssay by National Center for Advancing Translational Sciences (NCATS).
